GIV-Gai inh: inhibitors of GIV peptide binding to Galpha-i3, primary screen, biochemical, fluorescence polarization, FITC-GIV GBA peptide, rat Galphai3 | Guanine nucleotide-binding protein G(i) subunit alpha-3 (Rattus norvegicus), P08753 | 90 min; hits give low values; scaled: aluminum fluoride 0%, vehicle 100% | percent of control (FP), % (test concentration not listed) | hit rate 0.42% among 210,000 | AID 1224905, 2016;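 active = replicate mean at 85% of control or lower, very high polarization wells dropped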;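 note: wells of about 15 µL received 100 nL stock; the first replicate is given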
HCMV NEC inh: inhibitors of HCMV UL50-UL53 interaction, biochemical, HTRF. HCMV UL50-UL53 nuclear egress complex (human cytomegalovirus). normalized percent inhibition. inhibition, % (test concentration not listed). hit rate 0.15% among 190,000. AID 1918969, 2023; in the data active = inhibition above about 27%, passing the limit was not always enough
GIV-Gai FP conf: inhibitors of GIV peptide binding to Galpha-i3, confirmation, biochemical, fluorescence polarization, FITC-GIV peptide, rat Galphai3 | shares compounds with GIV-Gai inh | hits give low values | fluorescence polarization, mP at 100 µM | hit rate 38% among 580 | AID 1259350, 2017;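 active = inhibition score of 15 or more, meaning 100 minus mean polarization as percent of control over three replicates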;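 also: lower mP means peptide displaced from Galphai3 so more inhibition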
GIV Gai AS conf: inhibitors of GIV binding to Galpha-i3, confirmation, orthogonal assay for GIV-Galpha-i inhibitor project, biochemical, AlphaScreen, His-GIV, GST-Galphai3. shares compounds with GIV-Gai inh. purified proteins, 90 min; hits give low values. hit rate 39% among 580. AID 1259351, 2017. AlphaScreen counts at 100 µM;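 active = inhibition score at or above a set limit, where the score is 100 minus the three-replicate mean percent of control signal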
Starred values were filed as active, the others as inactive; nt = no result; ! = repeats disagree. The list is not random: actives were taken first. Their share in the collection is about 0.46%.

Amino acid sequences for entries named in this document (tags omitted).
Guanine nucleotide-binding protein G(i) subunit alpha-3 (Rattus norvegicus), P08753, UniProt P08753, whole entry, looked up: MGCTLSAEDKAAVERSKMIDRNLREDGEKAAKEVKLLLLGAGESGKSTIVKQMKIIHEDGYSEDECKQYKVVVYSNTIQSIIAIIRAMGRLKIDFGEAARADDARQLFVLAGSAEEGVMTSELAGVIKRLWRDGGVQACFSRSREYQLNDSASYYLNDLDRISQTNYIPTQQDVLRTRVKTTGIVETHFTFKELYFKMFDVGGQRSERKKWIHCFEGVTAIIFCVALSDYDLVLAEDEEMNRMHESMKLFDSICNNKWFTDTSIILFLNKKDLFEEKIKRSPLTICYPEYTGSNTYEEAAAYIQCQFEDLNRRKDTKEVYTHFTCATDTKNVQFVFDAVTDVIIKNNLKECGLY

Screens by letter: A = GIV-Gai inh; B = HCMV NEC inh; C = GIV-Gai FP conf; D = GIV Gai AS conf
#1 CCOC(=O)c1c(NC(=O)c2nc(S(=O)(=O)CC)ncc2Cl)sc2c1CCCC2
  A = 96.9; B = -1.5; C = nt; D = nt

#2 CCCS(=O)(=O)c1ncc(Cl)c(C(=O)Nc2sc3c(c2C(=O)OCC)CCCC3)n1
  A = 75.9*; B = 7.3; C = 62.4; D = 44265

#3 O=C(Nc1cccc(C(F)(F)F)c1)c1ccc(F)c(S(=O)(=O)N2CCN(c3ccccc3F)CC2)c1
  A = 110.1; B = nt; C = nt; D = nt

#4 O=C(NCCn1c(-c2ccccc2)nc2cccnc21)c1ccc(Cl)cc1
  A = 109.8; B = -16.8; C = nt; D = nt

#5 CN(C)CCNC(=O)c1ccc(-n2c(-c3ccccc3)nc3cccnc32)cc1
  A = 83.3*; B = -14.6; C = 60.5; D = 33901

#6 CC(=O)[C@@H]1[C@@H](c2ccc(Cl)cc2)C(C#N)(C#N)[C@H]2C=Cc3ccccc3N12
  A = 111.4; B = nt; C = nt; D = nt

#7 O=C(O)c1ccc(-n2ncc(Cl)c(Cl)c2=O)cc1
  A = 77.9*!; B = -19.1; C = 62.4; D = 39055

#8 CC(=O)Nc1cnn(-c2ccccc2)c(=O)c1Cl
  A = 103.8; B = -57.4; C = nt; D = nt

#9 Clc1ccc(CSc2cnc3ccccc3n2)cc1
  A = nt; B = -8.7; C = nt; D = nt

#10 CC1=NN(c2ccccc2)C(=O)C1C(c1ccc2c(c1)OCO2)C1C(=O)N(c2ccccc2)N=C1C (stereo unspecified)
  A = 72.2*; B = nt; C = 63.4; D = 17537*

#11 CC1=NN(c2ccccc2)C(=O)C1C(c1ccccc1)C(C#N)C#N (stereo unspecified)
  A = 106.0; B = nt; C = nt; D = nt

#12 CCOC(=O)c1ccc(Nc2nc3ccccc3n3cnnc23)cc1
  A = 103.4; B = 0.5; C = nt; D = nt

#13 Cc1ccc(C(=O)O)cc1Nc1nc2ccccc2n2cnnc12
  A = 75.6*; B = -2.9; C = 42.7*; D = 18787*

#14 Cc1cc(/C=C(\C#N)C(=O)NCc2cccs2)c(C)n1C1CCCC1
  A = 101.6; B = 9.6; C = nt; D = nt

#15 CC(=O)N/N=C/c1cc(C(C)C)cc(/C=N/NC(C)=O)c1O
  A = 80.6*; B = -84.6; C = 67.6; D = 27039

A draw from above in order of length of the SMILES, lowest first.
Screens by letter: A = GIV-Gai inh; B = HCMV NEC inh; C = GIV-Gai FP conf; D = GIV Gai AS conf
#8 CC(=O)Nc1cnn(-c2ccccc2)c(=O)c1Cl
  A = 103.8; B = -57.4; C = nt; D = nt

#2 CCCS(=O)(=O)c1ncc(Cl)c(C(=O)Nc2sc3c(c2C(=O)OCC)CCCC3)n1
  A = 75.9*; B = 7.3; C = 62.4; D = 44265

#3 O=C(Nc1cccc(C(F)(F)F)c1)c1ccc(F)c(S(=O)(=O)N2CCN(c3ccccc3F)CC2)c1
  A = 110.1; B = nt; C = nt; D = nt

New compounds follow.
Screens by letter: A = GIV-Gai inh; B = HCMV NEC inh; C = GIV-Gai FP conf; D = GIV Gai AS conf
#16 CC(=O)N/N=C/c1ccccc1
  A = 100.7; B = -13.7; C = nt; D = nt

#17 CCCCNC(=O)c1cc2c(s1)-c1c(C)nn(-c3ccccc3)c1CC2
  A = 108.5; B = -25.8; C = nt; D = nt

#18 Cn1ncc2c1ncn1nc(-c3ccccc3)nc21
  A = 96.1; B = nt; C = nt; D = nt

#19 O=C(O)c1ccc(CSc2n[nH]c(-c3ccco3)n2)cc1
  A = 78.4*; B = 5.3; C = 57.5*; D = 2493*

#20 CCOC(=O)CSc1n[nH]c(-c2ccco2)n1
  A = 103.7; B = nt; C = nt; D = nt

#21 O=c1c2sccc2n2c(SCc3ccc(Cl)cc3)nnc2n1CC1CCCO1 (stereo unspecified)
  A = 102.5; B = -11.9; C = nt; D = nt

#22 CCN(CC)c1ccc2c(c1)CCCN2
  A = 52.9*; B = -15.5; C = 62.7; D = 11170*

#23 O=S(=O)(c1ccc2c(c1)CCCN2)N1CCCCC1
  A = nt; B = -33.0; C = nt; D = nt

#24 N#CC(C#N)=C(N)C(C#N)Cc1ccc(Cl)cc1 (stereo unspecified)
  A = nt; B = -10.8; C = nt; D = nt

#25 O=C(O)c1cccc(Nc2ncnc3scc(-c4ccccc4)c23)c1
  A = 71.8*; B = -10.8; C = 81.7; D = 29755

#26 CC(C)Nc1ncnc2scc(-c3ccccc3)c12
  A = 103.6; B = -14.2; C = nt; D = nt

#27 Cc1cc(-c2c(C)sc(C)c2S(=O)(=O)N2CC=C(c3ccccc3)CC2)n[nH]1
  A = 96.1; B = nt; C = nt; D = nt

#28 O=C(Nc1cc(Oc2cccnc2)cc([N+](=O)[O-])c1)c1cc2nc(-c3cccs3)cc(C(F)(F)F)n2n1
  A = 94.4; B = -22.8; C = nt; D = nt

#29 Cn1c(=O)c(-c2ccccc2)c2c3c(cccc31)C(=O)c1ccccc1-2
  A = 109.7; B = nt; C = nt; D = nt

#30 Cn1c(=O)c(C(=O)CS(=O)(=O)O)c2c3c(cccc31)C(=O)c1ccccc1-2
  A = 55.3*; B = nt; C = 22.4*; D = 7785*

#31 Cc1ccc(-n2nc3c(n2)/C(=N/O)CCC3)cc1
  A = 78.7*; B = 46.8*; C = 66.2; D = 23948*

#32 COc1ccc(-c2nc3c(n2O)CCC/C3=N\O)cc1
  A = 100.2; B = -34.6; C = nt; D = nt

#33 C/C(=N\NC(=O)Cn1nnc(-c2cccc(C(F)(F)F)c2)n1)c1ccncc1
  A = nt; B = -2.8; C = nt; D = nt

#34 O=c1oc2ccccc2c(NCc2ccc3c(c2)OCO3)c1CN1CCCC1
  A = 103.3; B = nt; C = nt; D = nt

#35 CCCCn1c(CSc2ncccc2C(=O)O)nc2cc(S(=O)(=O)N3CCOCC3)ccc21
  A = nt; B = 6.0; C = nt; D = nt

#36 O=C(O)c1cc2c3c(c1)C1C=CCC1C(c1ccccc1F)N3CC1CC=CC21 (stereo unspecified)
  A = 74.1*; B = -18.9; C = 21.2*; D = 3685*

#37 O=C(O)c1cc2c3c(c1)C1C=CCC1C(c1ccccc1)N3CC1CC=CC21 (stereo unspecified)
  A = 81.4*; B = 8.7; C = 47.1*; D = 7304*

#38 O=C(O)c1cc2c3c(c1)C1C=CCC1C(c1ccc(F)cc1)N3CC1CC=CC21 (stereo unspecified)
  A = 98.5; B = 4.6; C = nt; D = nt

#39 O=C(O)c1cc2c3c(c1)C1C=CCC1C(c1cccc([N+](=O)[O-])c1)N3CC1CC=CC21 (stereo unspecified)
  A = 100.5; B = -7.0; C = nt; D = nt

#40 CC(NC(=O)CCN1CCOCC1)C1COc2ccccc2O1 (stereo unspecified)
  A = 100.3; B = -24.2; C = nt; D = nt

#41 Cc1cccc(NC(c2ccccn2)c2c(NC(=O)c3ccccc3)sc(C)c2C)n1 (stereo unspecified)
  A = 107.2; B = -9.6; C = nt; D = nt

#42 O=C(Nc1cccc(Cl)c1)C1=CC(=O)N2CCN=C2S1
  A = 96.0; B = 25.8; C = nt; D = nt

#43 N#CC1=C(N)Oc2cc(N)ccc2C12C(=O)Nc1ccccc12 (stereo unspecified)
  A = 145.7; B = 1.7; C = nt; D = nt

#44 Nn1c(SCC(=O)NC2CCCC2)nnc1C1COc2ccccc2O1 (stereo unspecified)
  A = nt; B = -37.8; C = nt; D = nt

#45 CCCc1[nH]nc2c1C(c1ccc(OC(=O)N3CCOCC3)c(OCC)c1)C(C#N)=C(N)O2 (stereo unspecified)
  A = 99.3; B = nt; C = nt; D = nt

An excerpt from above, showing only GIV-Gai inh and GIV Gai AS conf.
nr | Molecule | GIV-Gai inh | GIV Gai AS conf
14 | Cc1cc(/C=C(\C#N)C(=O)NCc2cccs2)c(C)n1C1CCCC1 | 101.6 | nt
25 | O=C(O)c1cccc(Nc2ncnc3scc(-c4ccccc4)c23)c1 | 71.8* | 29755

(further entries)
Screens by letter: A = GIV-Gai inh; B = HCMV NEC inh; C = GIV-Gai FP conf; D = GIV Gai AS conf
#46 Nc1ccc2c(c1)CCC2=O
  A = 144.5; B = -20.9; C = nt; D = nt

#47 O=C1CC(=O)c2ccc3c4c(ccc1c24)C(=O)CC3=O
  A = 74.2*; B = -46.5; C = 53.2*; D = 2272*

#48 O=C(Nc1cccc(-c2nc3ccccc3o2)c1)C(F)(F)F
  A = 70.3*; B = -55.5; C = 75; D = 32747

#49 CCC(=O)Nc1cccc(-c2nc3ccccc3o2)c1
  A = nt; B = -6.9; C = nt; D = nt

#50 O=c1[nH]c2cc3c(cc2c(=O)n1Cc1nc(-c2ccc(Br)cc2)no1)OCO3
  A = 108.8; B = -6.1; C = nt; D = nt

#51 O=C(O)C(Sc1ncn[nH]1)c1ccccc1 (stereo unspecified)
  A = nt; B = -17.7; C = nt; D = nt

#52 CCOc1ccc(S(=O)(=O)/N=C2/C=C(Sc3ncn[nH]3)C(=O)c3ccccc32)cc1
  A = 11.3*; B = 21.1; C = 31.8*; D = 6312*

#53 O=C1C(Sc2ncn[nH]2)=C/C(=N/S(=O)(=O)c2cccs2)c2ccccc21
  A = 18.3*; B = 51.3*; C = 39.8*; D = 4995*

#54 O=C1C(Sc2ncn[nH]2)=C/C(=N/S(=O)(=O)c2ccc(F)cc2)c2ccccc21
  A = 3.7*; B = 2.4; C = 36.1*; D = 5053*

#55 O=S(=O)(Nc1cc(Sc2ncn[nH]2)c(O)c2ccccc12)c1cccs1
  A = 105.2; B = -0.8; C = nt; D = nt

#56 CCOc1ccc(CSc2ncn[nH]2)cc1
  A = 98.9; B = -4.5; C = nt; D = nt

#57 Cc1cc2cc(CNC(=O)c3ccc(S(=O)(=O)N(C)C)cc3)ccc2[nH]1
  A = nt; B = -16.3; C = nt; D = nt

#58 C#CC(C)(C)NC(=O)c1cccnc1Oc1ccccc1
  A = 102.9; B = -38.2; C = nt; D = nt

#59 O=C(c1noc2ncnc(N3CCOCC3)c12)N1CCN(Cc2ccc3c(c2)OCO3)CC1
  A = 99.9; B = -11.5; C = nt; D = nt

#60 Cc1cc(C)nc(N2CCOCC2)n1
  A = nt; B = -1.6; C = nt; D = nt

#61 CCCCCCNC(=O)c1c[nH]c2ccc(S(=O)(=O)N(C)c3ccc(Br)cc3)cc2c1=O
  A = 111.6; B = nt; C = nt; D = nt
